Laboratory results reported in article PMC4748415, “Impact of different cell penetrating peptides on the efficacy of antisense therapeutics for targeting intracellular pathogens” (Scientific Reports, 2016).
≈ marks a conversion by molar mass, not a printed value.

Tested on: clinical isolates of L. monocytogenes
Type: cell-based, Listeria monocytogenes
Details: 16 h
Protocol: The MICs of conjugated PNAs, free PNA, CPPs and untreated control against L. monocytogenes were determined using the broth microdilution method according to the Clinical and Laboratory Standards Institute (CLSI) guidelines with the following modifications. Briefly, low binding clear microcentrifuge tubes (USA scientific, Inc. Ocala, FL) were used in triplicates for each reaction instead of traditional 96-well plates. […] After a 16 hour incubation period (of test agent with bacteria), the number of viable bacteria was enumerated by serial dilution and counting on TSA plates. The MICs were repeated at least twice.

Work on `CC[C@H](C)[C@H](NC(=O)[C@H](CCCCN)NC(=O)[C@@H](NC(=O)[C@H](CCC(N)=O)NC(=O)[C@@H](N)CCCNC(=N)N)[C@@H](C)CC)C(=O)N[C@@H](Cc1c[nH]c2ccccc12)C(=O)N[C@@H](Cc1ccccc1)C(=O)N[C@@H](CCC(N)=O)C(=O)N[C@@H](CC(N)=O)C(=O)N[C@@H](CCCNC(=N)N)C(=O)N[C@@H](CCCNC(=N)N)C(=O)N[C@@H](CCSC)C(=O)N[C@@H](CCCCN)C(=O)N[C@@H](Cc1c[nH]c2ccccc12)C(=O)N[C@@H](CCCCN)C(=O)N[C@@H](CCCCN)C(=O)O` [ANT] yielded an MIC50 of 64 µM (≈ 144 µg/mL).
